Data: the supplement of paper PMC11246515
± gives the standard deviation of the averaged measurements.

Assay: total protein half-life in vivo (active degradation + dilution); higher = more stable protein
[1] = E. coli NCM3722 delta-clpP, growth: N-lim chemostat, doubling time 6 h
[2] = E. coli NCM3722 delta-lon, growth: N-lim chemostat, doubling time 6 h
[3] = E. coli NCM3722 delta-smpB, growth: N-lim chemostat, doubling time 6 h
[4] = wild type E. coli NCM3722, growth: C-lim chemostat, doubling time 3 h
[5] = wild type E. coli NCM3722, growth: N-lim chemostat, doubling time 6 h
[6] = wild type E. coli NCM3722, growth: N-lim chemostat, doubling time 12 h
[7] = wild type E. coli NCM3722, growth: P-lim chemostat, doubling time 6 h
[8] = wild type E. coli NCM3722, growth: P-lim chemostat, doubling time 12 h
[9] = E. coli NCM3722 delta-clpP delta-lon delta-hslV, growth: N-lim chemostat, doubling time 6 h
[10] = E. coli NCM3722 delta-hslV, growth: N-lim chemostat, doubling time 6 h
[11] = wild type E. coli NCM3722, growth: C-lim chemostat, doubling time 6 h
[12] = wild type E. coli NCM3722, growth: C-lim chemostat, doubling time 12 h

Sequence | total protein half-life in vivo [1] [h] | total protein half-life in vivo [2] [h] | total protein half-life in vivo [3] [h] | total protein half-life in vivo [4] [h] | total protein half-life in vivo [5] [h] | total protein half-life in vivo [6] [h] | total protein half-life in vivo [7] [h] | total protein half-life in vivo [8] [h] | total protein half-life in vivo [9] [h] | total protein half-life in vivo [10] [h] | total protein half-life in vivo [11] [h] | total protein half-life in vivo [12] [h]
MANMFALILVIATLVTGILWCVDKFFFAPKRRERQAAAQAAAGDSLDKATLKKVAPKPGWLETGASVFPVLAIVLIVRSFIYEPFQIPSGSMMPTLLIGDFILVEKFAYGIKDPIYQKTLIETGHPKRGDIVVFKYPEDPKLDYIKRAVGLPGDKVTYDPVSKELTIQPGCSSGQACENALPVTYSNVEPSDFVQTFSRRNGGEATSGFFEVPKNETKENGIRLSERKETLGDVTHRILTVPIAQDQVGMYYQQPGQQLATWIVPPGQYFMMGDNRDNSADSRYWGFVPEANLVGRATAIWMSFDKQEGEWPTGLRLSRIGGIH | 5.25 ± 0.62 | 7.28 ± 0.52 | 6.08 ± 0.34 | 3.41 ± 0.3 | 6.89 ± 0.1 | 13 ± 1.4 | 6.25 ± 0.67 | 12 ± 0.81 | – | – | – | –
MASRGVNKVILVGNLGQDPEVRYMPNGGAVANITLATSESWRDKATGEMKEQTEWHRVVLFGKLAEVASEYLRKGSQVYIEGQLRTRKWTDQSGQDRYTTEVVVNVGGTMQMLGGRQGGGAPAGGNIGGGQPQGGWGQPQQPQGGNQFSGGAQSRPQQSAPAAPSNEPPMDFDDDIPF [P0AGE0] | 3.47 ± 0.28 | 3.82 ± 0.11 | 3.04 ± 0.22 | 3.13 ± 0.12 | 3.39 ± 0.037 | 4.79 ± 0.2 | 5.467 ± 0.0091 | 11.3 ± 0.81 | 4.51 ± 0.58 | 3.38 ± 0.094 | 5.21 ± 0.29 | 8.536 ± 0.044
MIRLYPEQLRAQLNEGLRAAYLLLGNDPLLLQESQDAVRQVAAAQGFEEHHTFSIDPNTDWNAIFSLCQAMSLFASRQTLLLLLPENGPNAAINEQLLTLTGLLHDDLLLIVRGNKLSKAQENAAWFTALANRSVQVTCQTPEQAQLPRWVAARAKQLNLELDDAANQVLCYCYEGNLLALAQALERLSLLWPDGKLTLPRVEQAVNDAAHFTPFHWVDALLMGKSKRALHILQQLRLEGSEPVILLRTLQRELLLLVNLKRQSAHTPLRALFDKHRVWQNRRGMMGEALNRLSQTQLRQAVQLLTRTELTLKQDYGQSVWAELEGLSLLLCHKPLADVFIDG | 4.6 ± 0.22 | 4.94 ± 0.21 | 4.09 ± 0.21 | – | 4.26 ± 0.46 | 7.46 ± 1.3 | 5.56 ± 1.2 | 9.19 ± 0.12 | 4.96 ± 1.2 | 5.68 ± 2.1 | 6.12 ± 2 | 8.3 ± 1.2
